The structures appear in SMILES notation. Only a part is listed here, and it is no random draw. Active and inactive are the calls of the source. No stated cut-off is given here; in the data, active means inhibition above about 45%; inactive means the rest.

The chains behind the UniProt entries cited, without tags or fusion partners.
UniProt O00206, whole entry: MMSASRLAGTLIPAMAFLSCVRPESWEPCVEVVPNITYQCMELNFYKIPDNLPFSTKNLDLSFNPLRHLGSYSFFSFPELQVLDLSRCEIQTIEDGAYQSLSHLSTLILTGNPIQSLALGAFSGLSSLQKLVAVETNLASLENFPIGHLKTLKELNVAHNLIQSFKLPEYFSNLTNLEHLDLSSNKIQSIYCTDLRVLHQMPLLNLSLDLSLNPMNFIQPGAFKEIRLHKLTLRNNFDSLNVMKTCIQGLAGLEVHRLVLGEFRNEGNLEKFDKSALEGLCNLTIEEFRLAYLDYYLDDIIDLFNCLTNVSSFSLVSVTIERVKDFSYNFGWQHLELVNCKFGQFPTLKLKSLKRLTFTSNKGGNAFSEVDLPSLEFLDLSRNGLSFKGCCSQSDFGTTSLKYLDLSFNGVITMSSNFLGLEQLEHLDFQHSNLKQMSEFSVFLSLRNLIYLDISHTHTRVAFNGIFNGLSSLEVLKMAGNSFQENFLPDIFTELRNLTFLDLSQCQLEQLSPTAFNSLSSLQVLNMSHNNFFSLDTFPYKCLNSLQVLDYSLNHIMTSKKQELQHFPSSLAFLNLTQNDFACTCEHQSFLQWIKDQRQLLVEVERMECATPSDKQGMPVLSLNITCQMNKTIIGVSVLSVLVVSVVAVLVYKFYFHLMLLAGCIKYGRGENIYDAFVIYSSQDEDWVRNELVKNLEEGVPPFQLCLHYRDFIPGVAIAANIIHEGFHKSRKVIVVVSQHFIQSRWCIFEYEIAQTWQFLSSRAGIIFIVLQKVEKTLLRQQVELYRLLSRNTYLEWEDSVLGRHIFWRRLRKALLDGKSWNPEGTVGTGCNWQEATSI

The assay addresses Toll-like receptor 4 (Homo sapiens) (UniProt O00206). Briefly: inhibitors of human TLR4-MyD88 binding (AID 811). To be noted: Cell-based TLR4-MyD88 binding inhibition assay; at 10 µM; stronger effect = higher value.
As usually defined, the inhibition is the relative decrease from the control value, in per cent. Turning to `O=[N+]([O-])C1([N+](=O)[O-])COCOC1`, the inhibition is inactive: 18.8%.

For the origin of these results see PubChem BioAssay AID811 (The Scripps Research Institute Molecular Screening Center, 2007).
